According to US20060079453A1, “Hla binding peptides and their uses” (priority 2002, published 2006):

Legend:
Assay in all cases: biochemical
Type in all cases: binding
[1] = target: HLA-B*4403 (Homo sapiens, UniProt P01889, A223V/A65T/A93T/A95T/D201E/D98Y/E176V/E187L/E204Q/E69K/G107R/H137Y/K202T/L105A/L119I/N104T/N87E/Q56L/Q94N/R106L/R155S/R180L/S101N/S121R/S35A/S48T/T118I/V36M/W191S/Y140D/Y91S)
[2] = target: HLA-B*4002 (Homo sapiens, UniProt P01889, A65T/A93T/A95T/D138N/D201E/D98Y/E176V/E204Q/E69K/K202T/N87E/Q56L/Q94N/R180L/S48T/Y33H/Y91S)
[3] = target: HLA-B*4001 (Homo sapiens, UniProt P01889, A65T/A93T/A95T/D138N/D98Y/E176V/E69K/N87E/Q56L/Q94N/R180L/S121R/S35A/S48T/T167S/V36M/W171L/Y33H/Y91S)
[4] = target: HLA-B*4501 (Homo sapiens, UniProt P01889, A329T/A65T/A93T/A95T/C349S/D138N/D201E/D98Y/E176V/E187L/E204Q/E69K/H137Y/K202T/L119W/N87E/Q56L/Q94N/R155S/R180D/S121R/S35A/S48T/V127L/V306I/V36M/W191S/Y140L/Y33H/Y91S)
[5] = target: HLA-B*1801 (Homo sapiens, UniProt P01889, A329T/A93T/A95T/C349S/D201E/D54G/D98Y/E176V/E187T/E204Q/E69T/K202T/Q94N/R155S/R180L/S121R/V306I/Y140S/Y195H/Y33H/Y91S)
[6] = target: HLA-B*4402 (Homo sapiens, UniProt P01889, A223V/A65T/A93T/A95T/D201E/D98Y/E176V/E187L/E204Q/E69K/G107R/H137Y/K202T/L105A/L119I/N104T/N87E/Q56L/Q94N/R106L/R155S/R180D/S101N/S121R/S35A/S48T/T118I/V36M/W191S/Y140D/Y91S)

Structure (SMILES): CC(C)C[C@H](NC(=O)[C@H](CC(C)C)NC(=O)[C@H](CC(C)C)NC(=O)[C@H](Cc1ccccc1)NC(=O)[C@H](Cc1c[nH]cn1)NC(=O)[C@@H](NC(=O)[C@H](CC(C)C)NC(=O)[C@H](CCC(=O)O)NC(=O)[C@H](C)N)C(C)C)C(=O)O
- IC50 [1]: 0.94 nM
- IC50 [2]: 3.1 nM
- IC50 [3]: 25 nM
- IC50 [4]: 141 nM
- IC50 [5]: 160 nM

Structure (SMILES): CC(C)[C@H](N)C(=O)N[C@@H](CCC(=O)O)C(=O)N[C@@H](CC(=O)O)C(=O)N[C@@H](CCCCN)C(=O)N[C@@H](CC(=O)O)C(=O)N[C@@H](C)C(=O)N[C@H](C(=O)N[C@@H](C)C(=O)N[C@@H](Cc1ccccc1)C(=O)O)C(C)C
- IC50 [1]: 1440 nM
- IC50 [2]: 1580 nM

Structure (SMILES): CC(C)C[C@H](NC(=O)[C@H](CC(C)C)NC(=O)[C@H](Cc1ccccc1)NC(=O)[C@H](Cc1c[nH]cn1)NC(=O)[C@@H](NC(=O)[C@H](CC(C)C)NC(=O)[C@H](CCC(=O)O)NC(=O)[C@@H](N)C(C)C)C(C)C)C(=O)O
- IC50 [1]: 1.2 nM
- IC50 [2]: 31 nM
- IC50 [4]: 2430 nM
- IC50 [5]: 5 nM

Structure (SMILES): CC(C)C[C@H](NC(=O)[C@@H]1CCCN1C(=O)[C@H](CO)NC(=O)[C@H](CCCNC(=N)N)NC(=O)[C@@H]1CCCN1C(=O)[C@H](C)NC(=O)[C@H](CCC(=O)O)NC(=O)[C@H](CCC(=O)O)NC(=O)[C@H](CCC(=O)O)NC(=O)[C@@H](N)CO)C(=O)N[C@@H](C)C(=O)O
- IC50 [6]: 8550 nM
- IC50 [1]: 158 nM
- IC50 [2]: 5110 nM
- IC50 [5]: 1320 nM

Structure (SMILES): CSCC[C@H](NC(=O)[C@H](CC(=O)O)NC(=O)[C@H](CC(=O)O)NC(=O)[C@H](CC(=O)O)NC(=O)[C@H](CCC(=O)O)NC(=O)[C@@H](N)CC(C)C)C(=O)NCC(=O)N[C@@H](CC(=O)O)C(=O)N[C@@H](CC(C)C)C(=O)O
- IC50 [1]: 900 nM
- IC50 [3]: 556 nM
- IC50 [5]: 191 nM

Structure (SMILES): CC(C)C[C@H](NC(=O)[C@H](Cc1ccc(O)cc1)NC(=O)[C@H](CCC(=O)O)NC(=O)[C@@H](N)CO)C(=O)N[C@@H](CCC(N)=O)C(=O)N[C@@H](CC(C)C)C(=O)N[C@H](C(=O)N[C@@H](Cc1ccccc1)C(=O)NCC(=O)O)C(C)C
- IC50 [1]: 19 nM
- IC50 [2]: 421 nM
- IC50 [5]: 18 nM

Structure (SMILES): CC(C)C[C@H](NC(=O)[C@H](CCC(=O)O)NC(=O)[C@@H](N)[C@@H](C)O)C(=O)N[C@H](C(=O)N[C@@H](CCC(=O)O)C(=O)N1CCC[C@H]1C(=O)N[C@@H](CC(C)C)C(=O)N[C@H](C(=O)N1CCC[C@H]1C(=O)N[C@@H](CO)C(=O)NCC(=O)O)[C@@H](C)O)C(C)C
- IC50 [1]: 269 nM
- IC50 [3]: 2980 nM
- IC50 [4]: 14100 nM
- IC50 [5]: 601 nM

Structure (SMILES): CC[C@H](C)[C@H](NC(=O)[C@H](CCC(N)=O)NC(=O)[C@H](CC(C)C)NC(=O)[C@@H](NC(=O)[C@H](Cc1ccccc1)NC(=O)[C@H](Cc1ccc(O)cc1)NC(=O)[C@H](CCC(=O)O)NC(=O)CN)[C@@H](C)O)C(=O)O
- IC50 [6]: 3510 nM
- IC50 [1]: 1 nM
- IC50 [2]: 60 nM
- IC50 [5]: 7770 nM

Structure (SMILES): CC(C)C[C@H](NC(=O)[C@@H]1CCCN1C(=O)[C@H](CO)NC(=O)[C@H](CCCNC(=N)N)NC(=O)[C@@H]1CCCN1C(=O)[C@H](C)NC(=O)[C@H](CCC(=O)O)NC(=O)[C@H](CCC(=O)O)NC(=O)[C@@H](N)CCC(=O)O)C(=O)O
- IC50 [1]: 362 nM
- IC50 [3]: 4490 nM
- IC50 [4]: 307 nM
- IC50 [5]: 902 nM

Structure (SMILES): CC[C@H](C)[C@H](NC(=O)[C@H](CCC(=O)O)NC(=O)[C@@H](NC(=O)[C@H](CC(C)C)NC(=O)[C@H](CO)NC(=O)[C@H](CCCNC(=N)N)NC(=O)[C@H](CC(C)C)NC(=O)[C@H](CCC(N)=O)NC(=O)[C@H](CC(C)C)NC(=O)[C@H](CCC(=O)O)NC(=O)[C@@H](N)CCCNC(=N)N)[C@@H](C)O)C(=O)O
- IC50 [1]: 0.99 nM
- IC50 [2]: 3.7 nM
- IC50 [3]: 2.8 nM
- IC50 [4]: 269 nM

Structure (SMILES): C[C@H](NC(=O)[C@H](Cc1c[nH]cn1)NC(=O)[C@H](Cc1ccc(O)cc1)NC(=O)[C@H](CCC(=O)O)NC(=O)[C@@H](NC(=O)[C@H](CCC(=O)O)NC(=O)[C@@H](N)CC(=O)O)[C@@H](C)O)C(=O)N[C@@H](CC(=O)O)C(=O)NCC(=O)NCC(=O)O
- IC50 [6]: 3890 nM
- IC50 [1]: 269 nM
- IC50 [2]: 16800 nM
- IC50 [5]: 613 nM

Structure (SMILES): CC(C)C[C@H](NC(=O)CNC(=O)[C@H](CC(C)C)NC(=O)[C@H](Cc1ccc(O)cc1)NC(=O)[C@H](CCC(=O)O)NC(=O)[C@@H]1CCCN1C(=O)[C@H](CC(N)=O)NC(=O)[C@H](CCC(=O)O)NC(=O)[C@H](C)N)C(=O)O
- IC50 [1]: 2.5 nM
- IC50 [2]: 271 nM
- IC50 [5]: 17 nM

Structure (SMILES): CSCC[C@H](NC(=O)[C@H](CO)NC(=O)[C@H](CCC(=O)O)NC(=O)[C@@H](N)Cc1ccccc1)C(=O)N1CCC[C@H]1C(=O)N[C@@H](CC(N)=O)C(=O)N1CCC[C@H]1C(=O)N[C@@H](CCC(=O)O)C(=O)NCC(=O)N[C@@H](CCCNC(=N)N)C(=O)N[C@@H](Cc1ccc(O)cc1)C(=O)O
- IC50 [1]: 70 nM
- IC50 [4]: 1390 nM

Structure (SMILES): CC[C@H](C)[C@H](NC(=O)[C@H](CCC(=O)O)NC(=O)[C@@H]1CCCN1)C(=O)N[C@@H](CCC(N)=O)C(=O)N[C@@H](CC(N)=O)C(=O)N[C@H](C(=O)N[C@H](C(=O)N[C@@H](Cc1ccc(O)cc1)C(=O)N[C@@H](CC(C)C)C(=O)N[C@@H](Cc1c[nH]c2ccccc12)C(=O)O)[C@@H](C)O)[C@@H](C)O
- IC50 [1]: 6170 nM
- IC50 [2]: 9420 nM
- IC50 [5]: 819 nM

Structure (SMILES): CC(C)C[C@H](NC(=O)[C@H](Cc1ccc(O)cc1)NC(=O)[C@H](CCC(=O)O)NC(=O)[C@H](CCC(=O)O)NC(=O)[C@H](C)N)C(=O)N[C@H](C(=O)N1CCC[C@H]1C(=O)N[C@@H](CCC(N)=O)C(=O)N[C@@H](CCC(N)=O)C(=O)NCC(=O)O)C(C)C
- IC50 [1]: 479 nM
- IC50 [5]: 723 nM

Structure (SMILES): CC[C@H](C)[C@H](NC(=O)[C@H](Cc1c[nH]cn1)NC(=O)[C@@H]1CCCN1C(=O)[C@H](CCC(=O)O)NC(=O)CN)C(=O)N[C@@H](CO)C(=O)N[C@@H](Cc1ccc(O)cc1)C(=O)O [GEPHISY]
- IC50 [1]: 272 nM
- IC50 [2]: 6720 nM
- IC50 [5]: 8830 nM

Structure (SMILES): CC[C@H](C)[C@H](NC(=O)[C@H](CC(N)=O)NC(=O)[C@@H]1CCCN1C(=O)[C@@H](NC(=O)[C@H](Cc1ccccc1)NC(=O)[C@H](CC(C)C)NC(=O)[C@H](CCC(=O)O)NC(=O)[C@@H](N)CCC(N)=O)[C@@H](C)CC)C(=O)N[C@H](C(=O)N[C@H](C(=O)O)C(C)C)[C@@H](C)O
- IC50 [1]: 2.6 nM
- IC50 [2]: 27 nM
- IC50 [3]: 121 nM
- IC50 [4]: 14 nM
- IC50 [5]: 81 nM

Structure (SMILES): CC(C)C[C@H](NC(=O)[C@H](CCC(=O)O)NC(=O)[C@H](CC(C)C)NC(=O)[C@H](C)NC(=O)[C@H](CCC(=O)O)NC(=O)[C@H](CC(N)=O)NC(=O)[C@H](CC(C)C)NC(=O)[C@H](CCC(=O)O)NC(=O)[C@@H](N)CCCNC(=N)N)C(=O)O
- IC50 [1]: 1.1 nM
- IC50 [2]: 30 nM
- IC50 [3]: 15 nM
- IC50 [5]: 3000 nM

Structure (SMILES): CC(C)C[C@H](NC(=O)[C@@H]1CCCN1C(=O)[C@H](CCC(=O)O)NC(=O)[C@@H](N)C(C)C)C(=O)N[C@H](C(=O)N1CCC[C@H]1C(=O)N[C@@H](CO)C(=O)NCC(=O)N[C@@H](C)C(=O)O)[C@@H](C)O
- IC50 [6]: 8520 nM
- IC50 [1]: 191 nM
- IC50 [5]: 7320 nM

Structure (SMILES): CC(C)C[C@H](NC(=O)[C@@H](NC(=O)[C@H](CCCNC(=N)N)NC(=O)[C@H](CS)NC(=O)[C@H](CCC(=O)O)NC(=O)[C@H](CCC(=O)O)NC(=O)[C@@H](N)C(C)C)C(C)C)C(=O)N[C@@H](CCC(N)=O)C(=O)NCC(=O)O
- IC50 [1]: 305 nM
- IC50 [2]: 7620 nM
- IC50 [3]: 8950 nM

Structure (SMILES): CC(C)C[C@H](NC(=O)[C@H](Cc1ccc(O)cc1)NC(=O)[C@H](CCC(=O)O)NC(=O)[C@@H]1CCCN1)C(=O)N[C@H](C(=O)N1CCC[C@H]1C(=O)N[C@@H](CCC(N)=O)C(=O)NCC(=O)NCC(=O)N[C@@H](C)C(=O)N[C@@H](C)C(=O)O)[C@@H](C)O
- IC50 [1]: 354 nM
- IC50 [2]: 200 nM

Structure (SMILES): CC(C)[C@H](NC(=O)[C@H](CCCNC(=N)N)NC(=O)[C@H](Cc1ccccc1)NC(=O)[C@H](CCC(N)=O)NC(=O)CNC(=O)[C@@H](NC(=O)[C@H](C)NC(=O)[C@H](CCC(=O)O)NC(=O)[C@H](CCC(=O)O)NC(=O)[C@@H](N)CC(N)=O)[C@@H](C)O)C(=O)O
- IC50 [1]: 471 nM
- IC50 [4]: 405 nM
- IC50 [5]: 998 nM

Structure (SMILES): CC(C)C[C@H](NC(=O)[C@@H]1CCCN1C(=O)[C@H](CO)NC(=O)[C@H](C)NC(=O)[C@H](CCCNC(=N)N)NC(=O)[C@H](CCC(N)=O)NC(=O)[C@H](CCC(=O)O)NC(=O)[C@H](C)N)C(=O)O
- IC50 [1]: 0.38 nM
- IC50 [2]: 13 nM
- IC50 [3]: 73 nM
- IC50 [4]: 120 nM
- IC50 [5]: 16 nM
